Key:
RARγ = target: T1, RARγ (Homo sapiens, UniProt P13631); experiment: Transactivation assay for RAR gamma (gal4-RAR fusion, luciferase reporter, COS-7 cells); assay type: cell-based; conditions: ratio of test compound EC50 to that of atRA; inactive = no agonist action at the highest concentration tested
T1 construct: gal4 (fusion partner); expressed in transfected cells; host or cells: COS-7
Protocol: (§1) Transcriptional transactivation assays were performed with gal4 fusion receptor constructs, created using each of the RAR ligand binding domains, co-transfected with the pFR-luc (Stratagene™) reporter construct in COS-7 cells.
(§2) Briefly, on day 1, 96 well plates were seeded with 8000 cells per well then left to recover overnight. On day 2, the cells were co-transfected with 100 ng of reporter plasmid and 10 ng of the appropriate receptor plasmid per well using lipofectamine (Invitrogen™). On day 3, the lipofectamine containing media was replaced by a DMEM without phenol red, followed by the addition of test compound dissolved in 1 μL of DMSO to each well's 100 μL total volume. Finally, on day 4, the cells were lysed and their luciferase substrate was provided by the BrightGlo™ reagent (Promega™), the plates were then read on the MicroBeta TriLux™ (Perkin Elmer™).
(§3) Where replicate data has been generated, the data are quoted as a ratio of the mean EC50 from the separate experiments.

Protein sequences, listed by entry. Tags and fused reporters are not part of them. Residues count along the entry.
UniProt P13631, 185-419 limits assumed, species assumed: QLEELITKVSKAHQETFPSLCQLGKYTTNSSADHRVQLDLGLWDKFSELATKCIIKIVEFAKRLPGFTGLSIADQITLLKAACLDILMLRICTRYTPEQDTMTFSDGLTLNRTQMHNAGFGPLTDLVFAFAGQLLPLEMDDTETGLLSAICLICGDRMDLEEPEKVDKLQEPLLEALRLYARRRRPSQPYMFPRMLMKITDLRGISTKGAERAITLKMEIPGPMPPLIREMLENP
UniProt P10826, 183-417 limits assumed, species assumed: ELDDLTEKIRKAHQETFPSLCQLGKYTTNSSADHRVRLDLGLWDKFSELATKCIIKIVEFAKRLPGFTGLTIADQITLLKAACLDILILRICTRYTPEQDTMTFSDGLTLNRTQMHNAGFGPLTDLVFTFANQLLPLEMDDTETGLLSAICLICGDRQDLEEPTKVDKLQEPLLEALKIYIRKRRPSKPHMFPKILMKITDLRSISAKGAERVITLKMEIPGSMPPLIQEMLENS

RARβ = target: T2, RARβ (Homo sapiens, UniProt P10826); experiment: Transactivation assay for RAR beta (gal4-RAR fusion, luciferase reporter, COS-7 cells); assay type: cell-based; conditions: ratio of test compound EC50 to that of atRA; inactive = no agonist action at the highest concentration tested
T2 construct: gal4 (fusion partner); expressed in transfected cells; host or cells: COS-7
Protocol: as §1, §2, §3

Structure (SMILES)	RARγ activity ratio (RARγ)	RARβ activity ratio (RARβ)
CCOc1c(Cl)cc(C(=O)Nc2ccc(C(=O)O)cc2)cc1OC(C)C [AAA-078, 4-(3-Chloro-4-ethoxy-5-isopropoxybenzamido)benzoic acid]	8083	103
COc1c(Cl)cc(C(=O)Nc2ccc(C(=O)O)cc2)cc1OC(C)C [AAA-076, 4-(3-Chloro-5-isopropoxy-4-methoxybenzamido)benzoic acid]	10833	
CCOc1c(OC(C)C)cc(C(=O)Nc2ccc(C(=O)O)cc2)cc1OC(C)C [AAA-008, 4-(4-Ethoxy-3,5-diisopropoxybenzamido)benzoic acid]	56900	4560
O=C(O)c1ccc(NC(=O)c2cc(Cl)c(OC3CCCC3)c(Cl)c2)cc1 [AAA-001, 4-(3,5-Dichloro-4-(cyclopentyloxy)benzamido)benzoic acid]		342
CC(C)Oc1cc(C(=O)Nc2ccc(C(=O)O)cc2)cc(Cl)c1OC(C)C [AAA-050, 4-(3-Chloro-4,5-diisopropoxybenzamido)benzoic acid]	1386	
CC(C)(C)Oc1c(Cl)cc(C(=O)Nc2ccc(C(=O)O)cc2)cc1Cl [AAA-031, 4-(4-(tert-Butoxy)-3,5-dichlorobenzamido)benzoic acid]	6250	
